US20180057505A1, “BICYCLIC HETEROARYL COMPOUNDS USEFUL AS INHIBITORS OF THE PAR-2 SIGNALING PATHWAY” (VERTEX PHARMACEUTICALS INCORPORATED, priority 2015, published 2018)

By UniProt entry, the sequences of proteins in these tests, tags left out. Residues count along the entry.
UniProt P55085, 26-397 limits assumed: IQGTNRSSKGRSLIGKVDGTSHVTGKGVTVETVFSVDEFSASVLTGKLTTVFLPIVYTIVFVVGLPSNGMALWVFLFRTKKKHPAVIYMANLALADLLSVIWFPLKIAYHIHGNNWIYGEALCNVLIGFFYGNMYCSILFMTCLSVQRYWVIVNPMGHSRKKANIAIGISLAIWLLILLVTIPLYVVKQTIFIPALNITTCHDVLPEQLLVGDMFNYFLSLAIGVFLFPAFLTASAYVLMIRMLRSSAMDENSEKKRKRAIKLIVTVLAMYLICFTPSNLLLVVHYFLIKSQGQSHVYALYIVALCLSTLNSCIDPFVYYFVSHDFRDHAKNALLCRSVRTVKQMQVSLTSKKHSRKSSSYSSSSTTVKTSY

Assays:
[1] = target: T1, PAR2 (HT-29 cells) (Homo sapiens, UniProt P55085); experiment: Ca FLIPR TETRA assay, ANTAGONIST mode, activator 8 μM SLIGKV; conditions: read-out: SLIGKV IC50, Method A: maximal concentration of antagonist 0.1, 1 or 2 μM
Description: (§1) Protocol for Testing PAR2 Compounds in ANTAGONIST Mode Using the Ca FLIPR^TETRA Assay (384 Well).
(§2) 23000 HT-29 cells (ATCC# HTB-38) were plated in 384-well black, transparent-flat bottom plates and incubated in 25 uL of 1% FBS/McCoy's media ON at 37° C. under an atmosphere of 5% CO2. The following day, 25 uL FLIPR calcium 5 Molecular Devices assay reagent (Cat: R-8186) was added. Plates were incubated at 37° C. and r. t. for 45 min and 15 min, respectively. Compounds dilutions were prepared in 100% DMSO using a Biomek FX and diluted 20-fold in HBSS and then 5.5 uL was added directly to the cells by the FLIPR^TETRA (10× dilution) using FLIPR Tetra Pipette tips, black, non-sterile, 384 Molecular Devices (Cat: 9000-0764).
(§3) A first read was performed to determine whether the test compounds on their own can activate Ca^2+ responses. The cells were incubated with the compounds for 30 min at r. t. and then read in ANTAGONIST mode in the same plate by stimulating with 6.2 uL of a fixed concentration of the activator: final concentrations 8 μM SLIGKV, 1 U/mL Thrombin, 3.1 U/mL trypsin, or 0.6 μM UTP.

[2] = target: T1, PAR2 (HT-29 cells); experiment: Ca FLIPR TETRA assay, ANTAGONIST mode, activator 3.1 U/mL trypsin; conditions: read-out: Trypsin IC50, Method A: maximal concentration of antagonist 0.1, 1 or 2 μM
Description: as §1, §2, §3

[3] = test system: Thrombin-stimulated Ca2+ response in HT-29 cells; experiment: Ca FLIPR TETRA assay, ANTAGONIST mode, activator 1 U/mL Thrombin; conditions: read-out: Thrombin IC50
Description: as §1, §2, §3

[4] = test system: UTP-stimulated Ca2+ response in HT-29 cells; experiment: Ca FLIPR TETRA assay, ANTAGONIST mode, activator 0.6 μM UTP; conditions: read-out: UTP IC50
Description: as §1, §2, §3

Structure (SMILES): Cn1ncc(N2CCN(C(=O)c3cc4nc(-c5ccc(Cl)c(F)c5)cc(C(C)(C)C)c4o3)C(C)(C)C2=O)n1
- IC50 [1]: 0.0034 µM
- IC50 [2]: 0.0064 µM
- IC50 [3]: > 2 µM
- IC50 [4]: > 2 µM

Structure (SMILES): CC(C)(C)c1cc(N2CC3(CCC3)C2)nc2cc(C(=O)N3CCN(C(=O)[C@H]4C[C@@](C)(O)C4)CC3(C)C)oc12 (relative stereo)
- IC50 [1]: 0.03 µM
- IC50 [2]: 0.039 µM
- IC50 [3]: > 2 µM
- IC50 [4]: > 2 µM
